Molecular target: T1, Phosphatidylinositol 4,5-bisphosphate 3-kinase catalytic subunit delta isoform (Homo sapiens, UniProt O00329)
T1 sequence (O00329 whole entry): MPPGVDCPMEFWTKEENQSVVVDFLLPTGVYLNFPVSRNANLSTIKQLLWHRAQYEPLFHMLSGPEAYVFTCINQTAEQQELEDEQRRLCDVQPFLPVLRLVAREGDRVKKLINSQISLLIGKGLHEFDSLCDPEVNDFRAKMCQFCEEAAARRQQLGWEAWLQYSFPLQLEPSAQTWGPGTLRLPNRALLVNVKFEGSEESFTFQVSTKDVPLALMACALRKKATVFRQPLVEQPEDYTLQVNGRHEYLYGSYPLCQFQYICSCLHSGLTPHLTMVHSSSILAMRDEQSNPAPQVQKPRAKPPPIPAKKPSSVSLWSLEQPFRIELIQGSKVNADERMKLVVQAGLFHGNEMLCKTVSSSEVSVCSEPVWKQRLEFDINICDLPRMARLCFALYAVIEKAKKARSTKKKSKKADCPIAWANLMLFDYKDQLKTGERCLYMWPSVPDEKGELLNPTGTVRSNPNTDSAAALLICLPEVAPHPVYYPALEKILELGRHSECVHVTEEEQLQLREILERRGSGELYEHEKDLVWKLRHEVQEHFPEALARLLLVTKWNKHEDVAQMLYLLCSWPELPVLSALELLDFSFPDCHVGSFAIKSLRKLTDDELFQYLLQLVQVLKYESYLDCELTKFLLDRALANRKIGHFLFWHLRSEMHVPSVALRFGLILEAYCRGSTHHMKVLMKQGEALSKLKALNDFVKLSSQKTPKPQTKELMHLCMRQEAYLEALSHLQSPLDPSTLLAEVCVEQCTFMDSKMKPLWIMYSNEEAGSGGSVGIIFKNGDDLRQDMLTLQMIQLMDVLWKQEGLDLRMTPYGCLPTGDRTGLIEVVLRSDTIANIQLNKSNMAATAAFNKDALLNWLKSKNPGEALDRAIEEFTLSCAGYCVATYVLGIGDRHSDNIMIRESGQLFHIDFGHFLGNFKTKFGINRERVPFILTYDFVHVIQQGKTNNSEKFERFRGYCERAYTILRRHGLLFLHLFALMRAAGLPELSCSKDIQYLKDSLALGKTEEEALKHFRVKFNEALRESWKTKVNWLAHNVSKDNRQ
Assay: Inhibition of PI3Kdelta (unknown origin)

IC50: 87 nM
Structure (SMILES): CC(Nc1ncnc(N)c1C#N)c1cc2ncc(Cl)n2nc1-c1ccccc1 (stereo unspecified)

Reference: ChEMBL document CHEMBL5236558, “Imidazo[1,2-b]pyridazine as privileged scaffold in medicinal chemistry: An extensive review” (Eur J Med Chem, 2021)
